Consider 42 compounds from paper PMC4009755, “High-Throughput Screen of Natural Product Libraries for Hsp90 Inhibitors” (Biology, 2014).

For one assay, the target named is Hsp90 chaperone machinery present in rabbit reticulocyte lysate. Put plainly: Hsp90-dependent refolding of thermally denatured luciferase in rabbit reticulocyte lysate (high-throughput screen and titration). The class given is biochemical. The conditions noted are these: estimate; titration from 25 µg/mL in three-fold dilutions, repeated twice; rabbit reticulocyte lysate. As to the method: Rabbit reticulocyte lysate, prepared by lysing one volume of packed reticulocytes in two volumes of deionized water, followed by centrifugation for twenty minutes at 15,000 × g, was purchased from Green Hectares (Oregon, WI, USA).
Recombinant luciferase from Promega was diluted to 0.5 mg/mL in buffer consisting of 25 mM Tricine–HCl (pH 7.8), 8 mM MgSO4, 0.1 mM EDTA, and 10 mg/mL acetylated BSA. Next, the solution was adjusted to include 10% glycerol and 1% Triton X-100. Finally, the luciferase solution was heated to ~41°. Once the activity of the luciferase reached ~1% of its initial value, the mixture was placed on ice, or flash frozen in liquid nitrogen and placed at −80° for storage.
To prepare the denatured luciferase for use in re-folding assays, 125 µL of the 0.5 mg/mL mixture was added into a 10 mL mixture containing 80 mM Tris HCl, pH 7.7, 8 mM Mg(OAc)2, 300 mM KCl, 12 mM ATP, and 20 mM creatine phosphate, and 0.8 mg/mL creatine phosphokinase.
The assay buffer, which contains the luciferase substrate luciferin, consisted of 75 mM Tricine-HCl, pH 7.8, 24 mM MgSO4, 300 µM EDTA, 2 mM DTT, 313 µM D-luciferin, 640 µM coenzyme A, 660 µM ATP, 150 mM KCl, 10% (v/v) Triton X-100, 20% (v/v) glycerol, and 3.5% DMSO.
The libraries were screened for compounds that inhibited the refolding of thermally denatured luciferase using a high-throughput assay carried out with a slight modification of the method previously described. Briefly, compounds were reconstituted in 100% DMSO. Stocks of compounds purchased from Microsource, TimTec, Biofocus and BioMol were reconstituted to a concentration of 1 mg/mL. The stocks were diluted 40-fold into nano-pure water with the compounds being used at a final concentration of 12.5 µg/mL for the assay. Analyticon compounds (0.2 µmol) were reconstituted to a concentration of 4 mM, and were used at a final concentration of 40 µM in the assay. Assays were performed in 96-well microplates. To each well was added 30 µL of the water/DMSO compound solution, 15 µL of the reticulocyte lysate preparation, and 15 µL of the luciferase reagent. The plates were agitated and then allowed to incubate at 25 °C for one to three hours. After the incubation, 60 µL of assay buffer containing luciferin was added to each well. The plates were then read in a Molecular Devices LMaxII^384 microplate reader, and luminescence was measured in relative light units, with an integration time of 10 s. Compounds that inhibited luciferase refolding by approximately fifty percent or greater were then titrated into a refolding reaction containing native luciferase, to eliminate false positive hits that were direct inhibitors of luciferase as previously described. Compounds were classified as a potential Hsp90 inhibitor if they inhibited luciferase refolding by 60% or greater and there was no inhibition of the activity of native luciferase at the compound’s IC50 (concentration of the compound that inhibits luciferase refolding by 50%).
The titrations were repeated twice. For a more accurate determination of the IC50s for the compounds studied in Section 3.2.1 of this manuscript, a two-fold […] series of the compounds were used in triplicate, with the experiment being repeated three times.
Take `C=CC1CN2CCC1CC2C(O)c1ccnc2ccccc12` (single isomer, unassigned; (+)) [Compound 54, (+)-Cinchonine]: the IC50 is roughly 30 µM. On the same count and under the same terms, in the case of `CC(C)c1ccc2c(c1)CCC1[C@](C)(CN)CCC[C@]21C` (single isomer, unassigned; (+)) [Compound 96, (+)-Dehydroabietylamine] it was 30 to 75 µM; in that of `C=C1C(=O)O[C@H]2C1[C@H](OC(=O)/C(=C/CO)COC(=O)/C(C)=C\CO)CC(=C)[C@@H]1CC(=O)[C@@H](C)[C@@H]12` (stereo partly shown) [Compound 1], roughly 60 µM; in that of `C=C1C(=O)OC2C1C(OC(=O)C(C)(O)CC)C(OC(C)=O)C(C(=O)OC)=CCCC1(C)OC21` (stereo not shown) [Compound 2], roughly 40 µM. Same read-out and setting: then `C=C1C(=O)O[C@@H]2[C@H]3C(C)=CC[C@H]3C(=C)C[C@@H](OC(=O)/C(=C/CO)CO)[C@@H]12` [Compound 3], with roughly 40 µM; and `C/C=C/C=C/C=C/C(=O)O[C@@H]1C=C2COC(=O)[C@]2(O)[C@@]2(C)CCCC(C)(C)[C@H]12` [Compound 4], with roughly 60 µM; and `C=C1C(=O)O[C@@H]2/C=C(/C)C(=O)/C=C/[C@](C)(O)C[C@@H](OC(=O)C(C)C)[C@@H]12` [Compound 5, Tagitinin C], with roughly 10 µM. Regarding `C=C1C(=O)O[C@H]2[C@H]1CC/C(C)=C/CC[C@@]1(C)O[C@@H]21` [Compound 6, Parthenolide], the IC50 is greater than 100 µM. Same read-out and setting: then `C=C1C(=O)O[C@@H]2/C=C(\C)C(OC(C)=O)C/C=C(\C)CC(OC(=O)/C(=C/COC(C)=O)COC(C)=O)C12` (stereo partly shown) [Compound 7], with roughly 30 µM; and `CO[C@H]1/C=C/C(C)(C)/C=C/C(=O)O[C@H](C)[C@@H](C)CC/C=C/1C` [Compound 8], with roughly 10 µM. For `CC(=O)O[C@@H]1C[C@@H]2[C@@]3(C)CCCC(C)(C)[C@@H]3CC[C@@]2(C)[C@]2(O)C=C(C=O)[C@H](C=O)[C@@]12C` [Compound 11, Scalaradial, 12-epi-], the IC50 was 40 to 60 µM. Still for that read-out and setting: in the case of `C/C=C/CCC(=O)c1cc(C)c(O)c(C)c1O` [Compound 13, 2'3'-dihydrosorbicillin] it was greater than 100 µM. `O=C(OC1O[C@@H]2COC(=O)c3cc(O)c(O)c(O)c3-c3c(cc(O)c(O)c3O)C(=O)O[C@H]2[C@H](OC(=O)c2cc(O)c(O)c(O)c2)[C@H]1OC(=O)c1cc(O)c(O)c(O)c1)c1cc(O)c(O)c(O)c1` (stereo partly shown) [Compound 14, Tellimagrandin II]: the IC50 is roughly 70 µM. On the same count and under the same terms, in the case of `O=c1c(O)cc([C@H]2Oc3cc(O)cc(O)c3C[C@H]2O)cc2c([C@H]3Oc4cc(O)cc(O)c4C[C@H]3O)cc(O)c(O)c12` [Compound 15, Theaflavin] it was roughly 25 µM; in that of `CC(C)=CCCC1(C)C=Cc2c(O)cc(O)c(C(=O)c3ccccc3)c2O1` (stereo not shown) [Compound 17], roughly 50 µM; in that of `CC(C)=CCc1cc(C2CCc3ccc(O)cc3O2)c(CC=C(C)C)c(O)c1O` (stereo not shown) [Compound 18], roughly 60 µM.

Take `Cc1c(C)c2c(c(C)c1OC(=O)CCC(=O)O)CC[C@@](C)(CCC[C@H](C)CCC[C@H](C)CCCC(C)C)O2` [Compound 19, (+)-α-Tocopherol acid succinate]: the IC50 was roughly 50 µM.

`COc1cc(O[C@@H]2O[C@H](CO)[C@@H](O)[C@H](O)[C@H]2O)c2c(O)c(C(C)=O)c(C)cc2c1` [Compound 20, Torachrysone 8-O-Glucoside]: the IC50 was roughly 25 µM. Take `O=C(c1cc(Br)c(O)c(Br)c1)c1c(-c2cc(Br)c(O)c(Br)c2)c(-c2cc(Br)c(O)c(Br)c2)c(C(=O)c2cc(Br)c(O)c(Br)c2)n1CCc1ccc(O)cc1` [Compound 21, Polycitone A]: the IC50 is 10 to 20 µM. On the same count and under the same terms, then `O=C(OC[C@H]1O[C@@H](OC(=O)c2cc(O)c(O)c(OC(=O)c3cc(O)c(O)c(O)c3)c2)[C@H](OC(=O)c2cc(O)c(O)c(OC(=O)c3cc(O)c(O)c(O)c3)c2)[C@@H](OC(=O)c2cc(O)c(O)c(OC(=O)c3cc(O)c(O)c(O)c3)c2)[C@@H]1OC(=O)c1cc(O)c(O)c(OC(=O)c2cc(O)c(O)c(O)c2)c1)c1cc(O)c(O)c(OC(=O)c2cc(O)c(O)c(O)c2)c1` [Compound 22, Tannic acid], with roughly 5 µM; and `COc1cccc2oc(-c3ccccc3)cc(=O)c12` [Compound 24, 5-Methoxyflavone], with roughly 100 µM; and `O=C1CC(c2ccccc2)Oc2c(Cc3cccc(O)c3O)c(O)c(Cc3cccc(O)c3O)c(O)c21` (stereo not shown) [Compound 25], with roughly 70 µM. Still for that read-out and setting: in the case of `O=c1cc(-c2ccccc2O)oc2c(O)c(O)ccc12` [Compound 27, 7,8-dihydroxy-2-(2-hydroxyphenyl)chromen-4-one] it was roughly 10 µM. Still for that read-out and setting: then `COc1ccc(-c2coc3cc(O)cc(O)c3c2=O)cc1` [Compound 28, 5,7-dihydroxy-3-(4-methoxyphenyl)-chromen-4-one], with greater than 90 µM.

For `COc1ccc2oc(-c3cccc(OC)c3OC)cc(=O)c2c1` [Compound 29, 2-(2,3-Dimethoxyphenyl)-6-methoxy-4H-chromen-4-one], the IC50 is greater than 90 µM. For the compound `COc1ccc(-c2oc3ccc(C)cc3c(=O)c2O)cc1OC` [Compound 30, 3',4'-Dimethoxy-3-hydroxy-6-methylflavone], the IC50 was 30 to 80 µM. Still for that read-out and setting: in the case of `O=c1cc(-c2ccc(O)c(O)c2)oc2cc(O)cc(O)c12` [Compound 31, Luteolin] it was greater than 100 µM. Still for that read-out and setting: in the case of `COc1c(O)cc2oc3cc(O)c(CC=C(C)C)c(O)c3c(=O)c2c1CC=C(C)C` [Compound 32, 1,7-bis(3-methylbut-2-enyl)-3,6,8-trihydroxy-2-methoxy-xanthen-9-one] it was roughly 60 µM; in that of `CCCCCc1cc2cc(O)cc(Oc3c(O)cc(O)cc3CCCCC)c2c(=O)o1` [Compound 33], roughly 65 µM. Consider `COc1cc2oc(-c3ccccc3)cc(=O)c2cc1O` [Compound 34, 6-Hydroxy-7-methoxyflavone], for which the IC50 is roughly 45 µM.

Turning to `CC(C)=CCC[C@]1(C)C=Cc2c(O)c3c(c(CC=C(C)C)c2O1)O[C@]12C(=C[C@@H]4C[C@H]1C(C)(C)O[C@@]2(C/C=C(/C)C(=O)O)C4=O)C3=O` [Compound 35, Gambogic acid], the IC50 is roughly 2 µM. For the compound `COC(=O)/C(C)=C\CC12OC(C)(C)C3CC(C=C4C(=O)c5c(OC)c6c(c(CC=C(C)C)c5OC431)OC(C)(CCC=C(C)C)C=C6)C2=O` (stereo not shown) [Compound 37, Dimethyl Gambogate], the IC50 was roughly 2 µM. As for `CC(C)=CCc1c(O)cc2occ(-c3ccc4c(c3)OCO4)c(=O)c2c1O` [Compound 38, Derrubone], the IC50 is roughly 0.2 µM. For the compound `COc1cc(/C=C/C(=O)CC(=O)/C=C/c2ccc(O)c(OC)c2)ccc1O` [Compound 40, Curcumin], the IC50 is roughly 70 µM. For the compound `O=C(/C=C/c1ccc(O)cc1)c1ccccc1O` [Compound 41, 2',4-Dihydroxychalone], the IC50 was roughly 120 µM. On the same count and under the same terms, in the case of `Cc1c(O)c2c(c(C(=O)/C=C/c3ccccc3)c1O)OC(C)(C)C=C2` [Compound 42, [6-methyl-5,7-dihydroxy-2,2-dimethylchromen-8-yl]-3-phenylprop-2-en-1-one] it was roughly 60 µM; in that of `CC(C)=CCc1c(O)ccc(C(=O)/C=C/c2ccc(O)cc2)c1O` [Compound 43, Corylifolinin], roughly 50 µM. Same read-out and setting: then `COc1c(C)c(O)c(C)c(O)c1C(=O)/C=C/c1ccccc1` [Compound 44, Dimethyl cardamonin], with roughly 70 µM; and `COc1cc(C/C=C/c2ccccc2)c(OC)cc1O` [Compound 46, Violastyrene], with roughly 20 µM; and `CC(=O)O[C@@H]1C[C@@]2(C)[C@H](c3ccoc3)C[C@H]3O[C@]32[C@]2(C)C(=O)C(O)=C3C(C)(C)C(=O)C=C[C@]3(C)[C@@H]12` [Compound 50, Anthothecol], with roughly 6 µM.

As for `O[C@@H]1CCN2Cc3ccccc3N=C12` [Compound 51, Peganine], the IC50 is roughly 130 µM. Still for that read-out and setting: in the case of `CC(C)/C=C1\NC(=O)C(C(C)C)n2c1nc1ccccc1c2=O` (stereo not shown) [Compound 53, (Z)-4-isopropyl-1-(2-methylpropylidene)-1,2-dihydro-6H-pyrazino[2,1-b]quinazoline-3,6(4H)-dione] it was roughly 60 µM.

The same assay, now with this note: two-hour incubation; vs DMSO control; triplicate, repeated three times; read-out: IC50 luciferase refolding.
Turning to `CC(=O)O[C@@H]1C[C@@]2(C)[C@H](c3ccoc3)C[C@H]3O[C@]32[C@]2(C)C(=O)C(O)=C3C(C)(C)C(=O)C=C[C@]3(C)[C@@H]12` [Compound 50, Anthothecol], the IC50 amounted to 12 ± 2 µM.
